Laboratory results from patent US20060115815A1 (priority 2002, published 2006).

biological target: recombinant HIV-1 protease (Human immunodeficiency virus type 1 group M subtype B, UniProt P04585); assay: biochemical; conditions: not given

| Compound | IC50 [nM] |
| --- | --- |
| Nc1n[nH]c2ccc(CN3C(=O)N(CCCOCP(=O)(O)O)C(Cc4ccccc4)C(O)C(O)C3Cc3ccccc3)cc12 (stereo not shown) [OCH2PO3H2] | 59 |
| Nc1cccc(CN2C(=O)N(Cc3cccc(C(=O)O)c3)C(Cc3ccccc3)C(O)C(O)C2Cc2ccccc2)c1 (stereo not shown) | 18 |
| CCOP(=O)(CCCNC(=O)c1cccc(CN2C(=O)N(Cc3cccc(N)c3)C(Cc3ccccc3)C(O)C(O)C2Cc2ccccc2)c1)OCC (stereo not shown) | 2.3 |

same assay, conditions: Enzymatic assay Ki

| Compound | Ki [pM] |
| --- | --- |
| CCOP(=O)(CCCNC(=O)c1cccc(CN2C(=O)N(Cc3cccc(N)c3)C(Cc3ccccc3)C(O)C(O)C2Cc2ccccc2)c1)OCC (stereo not shown) | < 4 |
| CCCCN1C(=O)N(Cc2ccc3[nH]nc(N)c3c2)C(Cc2ccccc2)C(O)C(O)C1Cc1ccccc1 (stereo not shown) [CH3 (DMP-851)] | 33 |

same assay, conditions: HIV-1 protease inhibition Ki

| Compound | Ki [pM] |
| --- | --- |
| CCCCOC(=O)CNP(=O)(COc1ccc(CC(NC(=O)OC2COC3OCCC23)C(O)CN(CC(C)C)S(=O)(=O)c2ccc(OC)cc2)cc1)NCC(=O)OCCCC (stereo not shown) [Compound 16b] | 4.9 ± 1.8 |

same assay, conditions: Ki

| Compound | Ki [pM] |
| --- | --- |
| COc1ccc(S(=O)(=O)N(CCN(C)C)CC(O)C(Cc2ccc(OCc3ccccc3)cc2)NC(=O)OC2COC3OCCC23)cc1 (stereo not shown) | > 1000 |
| CC(C)CN(CC(O)C(Cc1ccc(OCP(=O)(O)O)cc1)NC(=O)OC1COC2OCCC12)S(=O)(=O)c1ccc(F)cc1 (stereo not shown) | 10 to 100 |
| CC(C)CN(CC(O)C(Cc1ccc(OCP(=O)(O)O)cc1)NC(=O)OC1COC2OCCC12)S(=O)(=O)c1ccccc1 (stereo not shown) | 10 to 100 |
| COc1ccc(S(=O)(=O)N(Cc2ccccc2)CC(O)C(Cc2ccccc2)NC(=O)OC2COC3OCCC23)cc1 (stereo not shown) | 10 to 100 |
| COc1ccc(S(=O)(=O)N(CC(C)C)CC(O)C(Cc2ccccc2)NC(=O)OC2COC3OCCC23)cc1O (stereo not shown) | < 10 |
| Cc1cccc(C)c1OCC(=O)NC(Cc1ccc(OCP(=O)(OCc2ccccc2)OCc2ccccc2)cc1)C(O)CN(CC(C)C)S(=O)(=O)c1ccc(N)cc1 (stereo not shown) | 100 to 1000 |
| CC(C)CN(CC(O)C(Cc1ccccc1)NC(=O)OC1COC2OCCC12)S(=O)(=O)c1cccc(O)c1 (stereo not shown) | < 10 |
| CC(C)CN(CC(O)C(Cc1ccc(OCP(=O)(O)O)cc1)NC(=O)OC1COC2OCCC12)S(=O)(=O)c1ccc(CO)cc1 (stereo not shown) | 10 to 100 |
| CCOP(=O)(COc1ccc(S(=O)(=O)N(CC(C)C)CC(O)C(Cc2ccccc2)NC(=O)OC2COC3OCCC23)cc1)OCC (stereo not shown) | 10 to 100 |
| COc1ccc(S(=O)(=O)N(CC(O)C(Cc2ccccc2)NC(=O)OC2COC3OCCC23)CC(C)(C)CO)cc1 (stereo not shown) | < 10 |
| CC(C)CN(CC(O)C(Cc1ccc(OCP(=O)(OCc2ccccc2)OCc2ccccc2)cc1)NC(=O)OC1COC2OCCC12)S(=O)(=O)c1ccc(OC(F)(F)F)cc1 (stereo not shown) | 10 to 100 |
| CCOP(=O)(COc1cccc(S(=O)(=O)N(CC(C)C)CC(O)C(Cc2ccccc2)NC(=O)OC2COC3OCCC23)c1)OCC (stereo not shown) | < 10 |
| COc1ccc(S(=O)(=O)N(CC2CCN(C=O)CC2)CC(O)C(Cc2ccc(OCP(=O)(OCc3ccccc3)OCc3ccccc3)cc2)NC(=O)OC2COC3OCCC23)cc1 (stereo not shown) | 10 to 100 |
| CC(C)CN(CC(O)C(Cc1ccccc1)NC(=O)OC1COC2OCCC12)S(=O)(=O)c1cccc(OCP(=O)(OCc2ccccc2)OCc2ccccc2)c1 (stereo not shown) | 10 to 100 |
| COc1ccc(S(=O)(=O)N(CC2CCN(C=O)CC2)CC(O)C(Cc2ccc(OCP(=O)(O)O)cc2)NC(=O)OC2COC3OCCC23)cc1 (stereo not shown) | 10 to 100 |
| COc1ccc(S(=O)(=O)N(CC(C)C)CC(O)C(Cc2ccc(CO)cc2)NC(=O)OC2COC3OCCC23)cc1 (stereo not shown) | < 10 |
| CC(C)CN(CC(O)C(Cc1ccc(OCP(=O)(O)O)cc1)NC(=O)OC1COC2OCCC12)S(=O)(=O)c1ccc(OC(F)(F)F)cc1 (stereo not shown) | 10 to 100 |

| Compound | Ki [pM] |
| --- | --- |
| CC(C)CN(CC(O)C(Cc1ccc(OCP(=O)(OCc2ccccc2)OCc2ccccc2)cc1)NC(=O)OC1COC2OCCC12)S(=O)(=O)c1ccc(N)cc1 (stereo not shown) | 10 to 100 |
| CC(C)CN(CC(O)C(Cc1ccccc1)NC(=O)OC1COC2OCCC12)S(=O)(=O)c1ccc(OCP(=O)(O)O)cc1 (stereo not shown) | < 10 |
| CCOP(=O)(COc1ccc(CC(NC(=O)OC2COC3OCCC23)C(O)CN(CC(C)C)S(=O)(=O)c2ccc(N)cc2)cc1)OCC (stereo not shown) | 10 to 100 |
| CC(C)CN(CC(O)C(Cc1ccccc1)NC(=O)OC1COC2OCCC12)S(=O)(=O)c1ccc(O)cc1 (stereo not shown) | < 10 |
| COc1ccc(S(=O)(=O)N(CC(C)C)CC(O)C(Cc2ccccc2)NC(=O)OC2COC3OCCC23)cc1OCP(=O)(O)O (stereo not shown) | < 10 |
| CC(C)CN(CC(O)C(Cc1ccc(O)cc1)NC(=O)OC1COC2OCCC12)S(=O)(=O)c1cccc(N)c1 (stereo not shown) [OH, m-NH2] | 10 to 100 |
| CC(C)CN(CC(O)C(Cc1ccc(OCP(=O)(O)O)cc1)NC(=O)OC1COC2OCCC12)S(=O)(=O)c1ccc(N)cc1 (stereo not shown) | 10 to 100 |
| CCNc1ccc(S(=O)(=O)N(CC(C)C)CC(O)C(Cc2ccc(OCP(=O)(OCC)OCC)cc2)NC(=O)OC2COC3OCCC23)cc1 (stereo not shown) | 10 to 100 |
| CC(C)CN(CC(O)C(Cc1ccc(O)cc1)NC(=O)OC1COC2OCCC12)S(=O)(=O)c1ccc(N)cc1 (stereo not shown) [OH, p-NH2] | 10 to 100 |
| CC(C)CN(CC(O)C(Cc1ccc(OCP(=O)(O)O)cc1)NC(=O)OC1COC2OCCC12)S(=O)(=O)c1cccc(N)c1 (stereo not shown) | 10 to 100 |
| CCOP(=O)(COc1ccc(CC(NC(=O)OC2COC3OCCC23)C(O)CN(CC(C)C)S(=O)(=O)c2cccc(N)c2)cc1)OCC (stereo not shown) | 10 to 100 |
| COc1cccc(S(=O)(=O)N(CC(C)C)CC(O)C(Cc2ccccc2)NC(=O)OC2COC3OCCC23)c1 (stereo not shown) | < 10 |
| COc1ccc(S(=O)(=O)N(CC(C)C)CC(O)C(Cc2ccc(OCc3ccccc3)cc2)NC(=O)OC2COC3OCCC23)cc1 (stereo not shown) | < 10 |
| CC(C)CN(CC(O)C(Cc1ccc(OCP(=O)(O)O)cc1)NC(=O)OC1COC2OCCC12)S(=O)(=O)c1ccc(C(F)(F)F)cc1 (stereo not shown) | < 10 |
| CCOP(=O)(COc1ccc(CC(NC(=O)OC2COC3OCCC23)C(O)CN(CC2CCN(C=O)CC2)S(=O)(=O)c2ccc(OC)cc2)cc1)OCC (stereo not shown) | 10 to 100 |
| CC(C)CN(CC(O)C(Cc1ccc(OCP(=O)(OCc2ccccc2)OCc2ccccc2)cc1)NC(=O)OC1COC2OCCC12)S(=O)(=O)c1ccc(F)cc1 (stereo not shown) | 10 to 100 |
| CC(C)CN(CC(O)C(Cc1ccc(OCP(=O)(OCc2ccccc2)OCc2ccccc2)cc1)NC(=O)OC1COC2OCCC12)S(=O)(=O)c1ccccc1 (stereo not shown) | 10 to 100 |

same assay, conditions: Ki (pM)

| Compound | Ki [pM] |
| --- | --- |
| CCOP(=O)(CNc1ccc(CC(NC(=O)OC2COC3OCCC23)C(O)CN(CC(C)C)S(=O)(=O)c2ccc(OC)cc2)cc1)OCC (stereo not shown) | < 10 |
| CCOP(=O)(Cc1ccc(N(C)CC(NC(=O)OC2COC3OCCC23)C(O)CN(CC(C)C)S(=O)(=O)c2ccc(OC)cc2)cc1)OCC (stereo not shown) | 10 to 100 |
| CCOP(=O)(Cc1ccc2c(c1)CCN(CC(NC(=O)OC1COC3OCCC13)C(O)CN(CC(C)C)S(=O)(=O)c1ccc(OC)cc1)C2)OCC (stereo not shown) | 10 to 100 |
| COc1ccc(S(=O)(=O)N(CC(C)C)CC(O)C(CNCc2ccc(P(=O)(O)O)cc2)NC(=O)OC2COC3OCCC23)cc1 (stereo not shown) | > 1000 |
| COc1ccc(S(=O)(=O)N(CC(C)C)CC(O)C(CNc2ccc(CP(=O)(OCc3ccccc3)OCc3ccccc3)cc2)NC(=O)OC2COC3OCCC23)cc1 (stereo not shown) | 10 to 100 |
| COc1ccc(S(=O)(=O)N(CC(C)C)CC(O)C(Cc2ccc(OCP(=O)(O)O)cc2)NC(=O)OC2COC3OCCC23)cc1 (stereo not shown) [drawing 661 R1=OH R2=OH] | 10 to 100 |
| CCOP(=O)(Cc1ccc(NCC(NC(=O)OC2COC3OCCC23)C(O)CN(CC(C)C)S(=O)(=O)c2ccc(OC)cc2)cc1)OCC (stereo not shown) | 10 to 100 |
| COc1ccc(S(=O)(=O)N(CC(C)C)CC(O)C(CC2=CCN(CCP(=O)(OCc3ccccc3)OCc3ccccc3)CC2)NC(=O)OC2COC3OCCC23)cc1 (stereo not shown) | 10 to 100 |
| CCOP(=O)(OCC)c1ccc(CC(NC(=O)OC2COC3OCCC23)C(O)CN(CC(C)C)S(=O)(=O)c2ccc(OC)cc2)cc1 (stereo not shown) [drawing 653 R1=OEt R2=OEt] | < 10 |
| CCOP(=O)(CCNCc1ccc(CC(NC(=O)OC2COC3OCCC23)C(O)CN(CC(C)C)S(=O)(=O)c2ccc(OC)cc2)cc1)OCC (stereo not shown) [drawing 662 R1=Et R2=Et] | 10 to 100 |
| CCOP(=O)(CN1CC=C(CC(NC(=O)OC2COC3OCCC23)C(O)CN(CC(C)C)S(=O)(=O)c2ccc(OC)cc2)CC1)OCC (stereo not shown) | 10 to 100 |
| COc1ccc(S(=O)(=O)N(CC(C)C)CC(O)C(CN(C)Cc2ccc(P(=O)(O)O)cc2)NC(=O)OC2COC3OCCC23)cc1 (stereo not shown) | > 1000 |
| COc1ccc(S(=O)(=O)N(CC(C)C)CC(O)C(Cc2ccc(CNCCP(=O)(O)OC(C)C(=O)O)cc2)NC(=O)OC2COC3OCCC23)cc1 (stereo not shown) [drawing 662 R1=H R2=Lac] | 10 to 100 |
| COc1ccc(S(=O)(=O)N(CC(C)C)CC(O)C(Cc2ccc(P(=O)(O)O)cc2)NC(=O)OC2COC3OCCC23)cc1 (stereo not shown) [drawing 653 R1=OH R2=OH] | 10 to 100 |
| CCOC(=O)C(C)NP(=O)(Cc1ccc(NCC(NC(=O)OC2COC3OCCC23)C(O)CN(CC(C)C)S(=O)(=O)c2ccc(OC)cc2)cc1)NC(C)C(=O)OCC (stereo not shown) | 10 to 100 |
| COc1ccc(S(=O)(=O)N(CC(C)C)CC(O)C(Cc2ccc(OCP(=O)(OCc3ccccc3)OC(C)C(=O)OCc3ccccc3)cc2)NC(=O)OC2COC3OCCC23)cc1 (stereo not shown) [drawing 658 R1=OBn R2=Lac-Bn] | 10 to 100 |
| CCOP(=O)(OCC)c1ccc(CN(C)CC(NC(=O)OC2COC3OCCC23)C(O)CN(CC(C)C)S(=O)(=O)c2ccc(OC)cc2)cc1 (stereo not shown) | 100 to 1000 |
| COc1ccc(S(=O)(=O)N(CC(C)C)CC(O)C(Cc2ccc(CN(C)CCP(=O)(O)O)cc2)NC(=O)OC2COC3OCCC23)cc1 (stereo not shown) [drawing 663 R1=H R2=H] | 10 to 100 |
| COc1ccc(S(=O)(=O)N(CC(C)C)CC(O)C(Cc2ccc(CNCCP(=O)(O)O)cc2)NC(=O)OC2COC3OCCC23)cc1 (stereo not shown) [drawing 662 R1=H R2=H] | 10 to 100 |
| CCOP(=O)(CON=Cc1ccc(CC(NC(=O)OC2COC3OCCC23)C(O)CN(CC(C)C)S(=O)(=O)c2ccc(OC)cc2)cc1)OCC (stereo not shown) [drawing 664 R1=Et R2=Et] | 10 to 100 |

same assay, conditions: read-out: Ki

| Compound | Ki [pM] |
| --- | --- |
| CCOC(=O)COP(=O)(COc1ccc(C[C@H](NC(=O)O[C@H]2CO[C@H]3OCC[C@H]32)[C@H](O)CN(CC(C)C)S(=O)(=O)c2ccc(OC)cc2)cc1)OCC(=O)OCC [drawing 656 R1=Glc-Et R2=Glc-Et] | < 10 |
| COc1ccc(S(=O)(=O)N(C[C@@H](O)[C@H](Cc2ccccc2)NC(=O)O[C@H]2CO[C@H]3OCC[C@H]32)CC(C)(C)COCP(=O)(O)O)cc1 | 10 to 100 |
| CCOC(=O)C(CC)NP(=O)(COc1ccc(C[C@H](NC(=O)O[C@H]2CO[C@H]3OCC[C@H]32)[C@H](O)CN(CC(C)C)S(=O)(=O)c2ccc(OC)cc2)cc1)NC(CC)C(=O)OCC (stereo partly shown) [drawing 655 R1=Aba-Et R2=Aba-Et] | < 10 |
| COc1ccc(S(=O)(=O)N(CC(C)C)CC(O)C(Cc2ccc(C)cc2)NC(=O)OC2COC3OCCC23)cc1 (stereo not shown) | 10 to 100 |
